In US5847159A, “1-[ω-(3,4-dihydro-2-naphthalenyl)alkyl]-cyclic amine derivatives, process for preparing the same, and pharmaceutical composition containing the same” (priority 1995, dated 1998):

Test: in vivo
Settings: po, mouse, 7 days, read-out: Acute toxicity LD50
Excerpt: Male ddY mice weighing 18-25 g were used in groups of 5-15 animals. Test compounds suspended in 0.5% aqueous tragacanth solution were given orally, and the mortality was investigated for 7 days following administration.

CCc1ccc(C(=O)C(C)CN2CCCC2)cc1.Cl (stereo not shown) [Compound A, 1-(4-ethylphenyl)-2-methyl-3-(1-pyrrolidinyl)-1-propanone hydrochloride, reference compound]
LD50 at 168 h: 458 mg/kg
